Where two headings read alike, the source gives them in different places.
Target: T1, butyrylcholinesterase (Homo sapiens, UniProt P06276)
T1 construct: purchased Sigma-Aldrich
Experiment: Butyrylcholinesterase inhibitory activity by HPLC-DAD (Ellman reaction product TNBA)
Assay type: biochemical
Conditions: alkaloid standards, 0.2 U/mL enzyme, 15 min at 37 °C
Method: For determination of butyrylcholinesterase inhibitory activity of alkaloid standards and plant extracts by HPLC analysis was performed on the same apparatus, column and mobile phase as determination of acetylcholinesterase inhibitory activity.
Samples for determination of butyrylcholinesterase inhibitory activity were prepared by addition of 50 µL of butyrylthiocholine iodide, 50 µL of 5′-dithiobis-(2-nitrobenzoic acid), 50 µL of butyrylcholinesterase at concentration 2 U/mL and phosphate buffer at pH 7.8 to obtaining 500 µL of final solution. […] All components were mixed and samples were incubated for 15 min at 37 °C. Samples were filtrated by syringe filter (CHROMAFIL Xtra, PVDF-29/25 0.20 µm) and injected into HPLC system. […] All experiments were performed in triplicates.

Amino acid sequences for entries named in this document (tags omitted). Residues count along the entry.
UniProt P06276, 29-602: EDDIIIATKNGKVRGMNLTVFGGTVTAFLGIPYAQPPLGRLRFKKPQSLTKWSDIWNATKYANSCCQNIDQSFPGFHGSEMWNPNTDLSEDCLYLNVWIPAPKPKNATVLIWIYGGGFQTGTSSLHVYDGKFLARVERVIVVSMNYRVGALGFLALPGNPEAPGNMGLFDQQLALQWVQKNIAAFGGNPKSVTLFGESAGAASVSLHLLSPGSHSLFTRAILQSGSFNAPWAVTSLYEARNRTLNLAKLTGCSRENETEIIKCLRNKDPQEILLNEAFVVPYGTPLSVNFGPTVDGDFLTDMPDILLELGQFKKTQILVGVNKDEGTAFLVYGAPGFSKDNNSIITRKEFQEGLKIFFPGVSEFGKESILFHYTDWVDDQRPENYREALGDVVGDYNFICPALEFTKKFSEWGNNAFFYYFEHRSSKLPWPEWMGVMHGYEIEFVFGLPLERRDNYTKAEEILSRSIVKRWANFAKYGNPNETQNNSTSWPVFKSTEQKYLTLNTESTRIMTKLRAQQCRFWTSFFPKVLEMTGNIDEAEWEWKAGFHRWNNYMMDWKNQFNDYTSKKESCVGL

CCN(C)C(=O)Oc1cccc([C@H](C)N(C)C)c1 [Rivastigmine, rivastigmine]
IC50 (pH 7.8, read-out: IC50 values Butyrylcholinesterae): 8.38 ± 0.63 µM
IC50 (pH 7.8, read-out: IC50 values Butyrylcholinesterae (μg/mL) (converted)): 8.39 µM

From article PMC9182188, “Isoquinoline Alkaloid Contents in Macleaya cordata Extracts and Their Acetylcholinesterase and Butyrylcholinesterase Inhibition” (Molecules, 2022)
